Assays:
[1] = target: cellular receptors on normal and Pompe fibroblast cell lines (UniProt P11717)
[2] = target: cellular receptors on normal and Pompe fibroblast cell lines (UniProt P11717); assay: cell-based or functional assay
[3] = target: cation-independent mannose-6-phosphate receptor (CIMPR), immobilised on an affinity column or coated on plates; assay: M6P receptor (CIMPR) plate binding assay
[4] = target: cation-independent mannose-6-phosphate receptor (CIMPR), immobilised on an affinity column or coated on plates; assay: CIMPR affinity column, same condition as for MYOZYME and LUMIZYME (FIG. 5)
[5] = target: cation-independent mannose-6-phosphate receptor (CIMPR), immobilised on an affinity column or coated on plates; assay: CIMPR affinity chromatography of purified ATB200 from different production batches (FIG. 5)
[6] = target: cation-independent mannose-6-phosphate receptor (CIMPR), immobilised on an affinity column or coated on plates; assay: CIMPR affinity chromatography of ATB200 rhGAA made with AEX capture (Embodiment 2). This is the flow-through peak before M6P was added. Fractions were read as GAA activity (F460).
[7] = target: cation-independent mannose-6-phosphate receptor (CIMPR), immobilised on an affinity column or coated on plates; assay: CIMPR affinity chromatography of ATB200 rhGAA made without AEX capture (Embodiment 1). This is the flow-through peak before M6P was added. Fractions were read as GAA activity (F460).
[8] = target: cation-independent mannose-6-phosphate receptor (CIMPR), immobilised on an affinity column or coated on plates; assay: CIMPR affinity chromatography of ATB200 rhGAA made with AEX capture (Embodiment 2). Bound material was eluted with free M6P (gradient to about 1 mM, then a step to about 5 mM). Fractions were read as GAA activity (F460).
[9] = target: cation-independent mannose-6-phosphate receptor (CIMPR), immobilised on an affinity column or coated on plates; assay: CIMPR affinity chromatography of ATB200 rhGAA made without AEX capture (Embodiment 1). Bound material was eluted with free M6P (gradient to about 1 mM, then a step to about 5 mM). Fractions were read as GAA activity (F460).
[10] = target: cation-independent mannose-6-phosphate receptor (CIMPR), immobilised on an affinity column or coated on plates; assay: CIMPR affinity column, flow through against M6P-eluted fraction, by GAA activity

Substance: ATB200 recombinant human acid α-glucosidase (rhGAA) (from UniProt P10253 70-952) (enzyme)
- Kuptake, Pompe fibroblasts [1]: 3 nM
- Kuptake, normal fibroblasts [1]: 2 nM
- concentration that saturates cellular receptors (uptake into fibroblasts, internalized GAA activity) [2]: 20 nM
- Kd [3]: 2 to 4 nM
- percent of rhGAA bound [4]: > 70%
- CIMPR receptor binding (percent of rhGAA bound) [5]: > 70%
- percent of total GAA activity in the flow-through (not bound to the CIMPR column) [6]: 8%
- percent of total GAA activity in the flow-through (not bound to the CIMPR column) [7]: 30%
- percent of total GAA activity bound to the CIMPR column and eluted with M6P [8]: 92%
- percent of total GAA activity bound to the CIMPR column and eluted with M6P [9]: 70%

Substance: LUMIZYME® (alglucosidase alfa, conventional rhGAA product) (from UniProt P10253 57-952) (enzyme)
- Kuptake, Pompe fibroblasts [1]: 57 nM
- Kuptake, normal fibroblasts [1]: 56 nM
- concentration that saturates cellular receptors (uptake into fibroblasts, internalized GAA activity) [2]: 250 nM
- uptake efficiency constant (Kuptake) [2]: 56 nM
- percent of rhGAA that did not bind [10]: 78%
- percent of rhGAA with M6P that can target it to the CIMPR (bound fraction) [10]: 22%

Substance: MYOZYME® (alglucosidase alfa, conventional rhGAA product) (from UniProt P10253 57-952) (enzyme)
- percent of rhGAA that did not bind [10]: 73%
- percent of rhGAA with M6P that can target it to the CIMPR (bound fraction) [10]: 27%

— patent publication US20260207717A1, “METHODS FOR TREATING INFANTILE-ONSET POMPE DISEASE IN PEDIATRIC PATIENTS” (Amicus Therapeutics, Inc., priority 2022, published 2026)
